From US20140135270A1, “MACROCYCLIC COMPOUNDS FOR INHIBITION OF INHIBITORS OF APOPTOSIS” (Ensemble Therapeutics Corp., priority 2012, published 2014)

Sequences of proteins named here, by UniProt entry; tags and fusion partners are left off. A change or cut given only in a name is not applied to a line headed by its entry. Residues count along the entry.
UniProt P98170, 241-356 limits assumed: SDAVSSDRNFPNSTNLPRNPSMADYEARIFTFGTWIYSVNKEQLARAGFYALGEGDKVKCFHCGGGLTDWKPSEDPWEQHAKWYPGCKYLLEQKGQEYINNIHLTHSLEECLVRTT
UniProt P98170, 125-356 C202A/C213G limits assumed: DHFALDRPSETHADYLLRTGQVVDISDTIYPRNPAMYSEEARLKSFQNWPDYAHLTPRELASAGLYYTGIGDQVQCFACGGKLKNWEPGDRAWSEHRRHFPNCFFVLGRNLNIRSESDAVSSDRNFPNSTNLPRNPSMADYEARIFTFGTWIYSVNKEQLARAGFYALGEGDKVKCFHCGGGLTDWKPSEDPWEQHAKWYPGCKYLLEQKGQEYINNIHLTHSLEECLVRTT

Assays:
His-BIR3 (241-356, XIAP) = His-BIR3 (241-356, XIAP) (Homo sapiens, UniProt P98170); experiment: XIAP-BIR3/SMAC Homogeneous Time Resolved Fluorescence (HTRF) Assay; conditions: read-out: BIR3 HTRF IC50, fluorescein labeled SMAC peptide
Procedure: B. XIAP-BIR3/SMAC Homogeneous Time Resolved Fluorescence (HTRF) Assay
Assays were performed in black, flat-bottom, 384-well plates. The final assay volume was 50 μL prepared from additions of His-BIR3 (241-356, XIAP), fluorescein labeled SMAC peptide, and test compounds in assay buffer consisting of 20 mM Sodium Phosphate, 1 mM EDTA, 50 mM NaCl, 50 μg/ml BSA, and 0.05% Pluronic F68. The reaction was incubated at room temperature for 60 minutes, following which 10 μl of mouse anti-6×His-terbium labeled Fab (Medarex, Cis-bio) was added to the reaction (40 μl) for an additional 30 minute incubation. The HTRF signal, ratio of fluorescence intensities at emission wavelengths for fluorescein acceptor (520 nm) and terbium donor (615 nm), the 520/615 ratio, generated by the reaction was then measured on the Envision Plate Reader Inhibition data were calculated from the 520/615 ratio generated by the no protein control reactions for 100% inhibition and vehicle-only reactions for 0% inhibition. The final concentration of reagents in the assay was 1 nM N-His-BIR3(241-356, XIAP), 5 nM fluorescein labeled SMAC peptide, 0.25 nM anti-His-Tb-Fab, and 0.1% DMSO. Dose response curves were generated to determine the concentration required for inhibiting 50% of the HTRF signal (IC50). Compounds were dissolved at 3 mM in dimethylsulfoxide (DMSO) and evaluated at eleven serially diluted concentrations. […]

[1] = target: His-BIR2-3 (125-356, C202A/C213G, XIAP) (Homo sapiens, UniProt P98170, C202A/C213G); experiment: XIAP-BIR2-3 Dimeric SMAC Peptide Homogeneous Time Resolved Fluorescence (HTRF) Assay; conditions: read-out: BIR2-3 HTRF IC50, fluorescein labeled dimeric SMAC peptide
Procedure: D. XIAP-BIR2-3 Dimeric SMAC Peptide Homogeneous Time Resolved Fluorescence (HTRF) Assay
Assays were performed in black, flat-bottom, 384-well plates. The final assay volume was 50 μL prepared from additions of His-BIR2-3 (125-356, C202A/C213G, XIAP), fluorescein labeled dimeric SMAC peptide, and test compounds in assay buffer consisting of 20 mM Sodium Phosphate, 1 mM EDTA, 50 mM NaCl, 50 μg/ml BSA, and 0.05% Pluronic F68. The reaction was incubated at room temperature for 60 minutes, following which 101.1.1 of mouse anti-6×His-Tb IgG (Medarex, Cis-bio) was added to the reaction (40 μl) for an additional 30 minute incubation. The HTRF signal, ratio of fluorescence intensities at emission wavelengths for fluorescein acceptor (520 nm) and terbium donor (615 nm), the 520/615 ratio, generated by the reaction was then measured on the Envision Plate Reader. Inhibition data were calculated from the 520/615 ratio generated by the no protein control reactions for 100% inhibition and vehicle-only reactions for 0% inhibition. The final concentration of reagents in the assay was 0.5 nM N-His-BIR2-3(125-356, C202A/C213G, XIAP), 20 nM fluorescein labeled dimeric SMAC peptide, 0.25 nM anti-His-Tb-Fab, and 0.1% DMSO. […] Compounds were dissolved at 3 mM in dimethylsulfoxide (DMSO) and evaluated at eleven serially diluted concentrations. […]

| SMILES | IC50 (His-BIR3 (241-356, XIAP)) | IC50 [1] |
| --- | --- | --- |
| CN[C@@H](C)C(=O)N[C@H](C(=O)N1C[C@H]2C/C=C/COc3ccc(cc3)C[C@@H](C(=O)NS(=O)(=O)c3ccccc3)NC(=O)[C@H](Cc3ccc4ccccc4c3)NC(=O)[C@@H]3C[C@@H](CN3C(=O)[C@@H](NC(=O)[C@H](C)NC)C(C)(C)C)n3cc(nn3)COc3ccc(cc3)C[C@@H](C(=O)O)NC(=O)[C@H](Cc3ccc4ccccc4c3)NC(=O)[C@@H]1C2)C(C)(C)C | 0.3 nM | 0.2 nM |
| CN[C@@H](C)C(=O)N[C@H](C(=O)N1C[C@@H]2C[C@H]1C(=O)N[C@@H](Cc1ccc3ccccc3c1)C(=O)N[C@H](C(=O)O)Cc1ccc(cc1)OC/C=C/CO[C@H]1C[C@@H](C(=O)N[C@@H](Cc3ccc4ccccc4c3)C(=O)N[C@H](C(=O)NS(=O)(=O)C3CC3)Cc3ccc(cc3)OCc3cn2nn3)N(C(=O)[C@@H](NC(=O)[C@H](C)NC)C(C)(C)C)C1)C(C)(C)C | 3.6 nM | 0.7 nM |
